Test results from patent publication US10501421B1, “Substituted benzimidazoles as modulators of Ras signaling” (VANDERBILT UNIVERSITY, priority 2017, dated 2019).
Structures can show the parent of a compound that is named as a salt. Where two headings read alike, the source gives them in different places.

Amino acid sequences for entries named in this document (tags omitted). Residues count along the entry.
UniProt Q07889, 564-1049 limits assumed: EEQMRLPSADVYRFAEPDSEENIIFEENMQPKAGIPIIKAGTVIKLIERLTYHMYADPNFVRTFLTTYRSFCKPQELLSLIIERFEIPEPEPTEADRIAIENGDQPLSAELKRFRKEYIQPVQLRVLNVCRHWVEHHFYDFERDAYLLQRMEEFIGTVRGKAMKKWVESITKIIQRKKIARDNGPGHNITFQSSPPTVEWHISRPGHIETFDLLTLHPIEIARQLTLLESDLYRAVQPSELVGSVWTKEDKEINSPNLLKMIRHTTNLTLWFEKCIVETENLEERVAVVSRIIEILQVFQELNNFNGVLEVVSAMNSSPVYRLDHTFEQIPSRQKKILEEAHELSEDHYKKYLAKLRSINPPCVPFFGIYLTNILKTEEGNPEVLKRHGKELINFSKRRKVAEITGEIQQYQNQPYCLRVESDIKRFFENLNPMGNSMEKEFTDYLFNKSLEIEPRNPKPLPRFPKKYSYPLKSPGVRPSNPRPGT
UniProt P01112, 1-166 partner limits assumed: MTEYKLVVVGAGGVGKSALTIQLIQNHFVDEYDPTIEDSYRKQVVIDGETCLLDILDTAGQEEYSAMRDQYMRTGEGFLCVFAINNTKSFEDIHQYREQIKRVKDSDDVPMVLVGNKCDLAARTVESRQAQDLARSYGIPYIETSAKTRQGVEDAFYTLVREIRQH

How the values were obtained:
Son of Sevenless (SOS) = Son of Sevenless (SOS) (Homo sapiens, UniProt Q07889); test: Binding to SOS, fluorescence polarization anisotropy (FPA) probe displacement
[1] = target: Ras GEF SOS (Son of Sevenless) (Homo sapiens, UniProt Q07889); test: SOS-mediated nucleotide exchange on Ras (BODIPY-GDP fluorescence); format: biochemical; details: read-out: Nucleotide exchange activity (nucleotide exchange EC50), SOS-mediated exchange of BODIPY-GDP for GTP on Ras

Q: How did the Ki (Son of Sevenless (SOS); read-out: Binding affinity to SOS, displacement of FITC-conjugated probe (Example 285), affinity calculated from IC50, tested form: trifluoroacetate) turn out when `Cc1cc2nc(N3CCNCC3)n(Cc3ccc(F)c(Cl)c3)c2cc1Cl` was run?
A: Its Ki is 1000 to 5000 nM.

Q: And the EC50 ([1]; tested form: trifluoroacetate)?
A: Its EC50 is 1000 to 5000 nM.

Q: With `Fc1ccc(Cn2c(N3CCNCC3)nc3ccc(Cl)cc32)cc1Cl` [Example 73, 6-chloro-1-(3-chloro-4-fluorobenzyl)-2-(piperazin-1-yl)-1H-benzo[d]imidazole trifluoroacetate] as the molecule, how does the Ki (Son of Sevenless (SOS); read-out: Binding affinity to SOS, displacement of FITC-conjugated probe (Example 285), affinity calculated from IC50, tested form: TFA) read?
A: The Ki was under 500 nM.

Q: And the EC50 ([1]; tested form: TFA)?
A: The EC50 was under 1000 nM.
